The source of these data is patent US12042503B2, “Compositions and methods for treating coronavirus infections” (priority 2020, dated 2024).

Sequences of proteins named here, by UniProt entry; tags and fusion partners are left off. A change or cut given only in a name is not applied to a line headed by its entry.
UniProt P43116: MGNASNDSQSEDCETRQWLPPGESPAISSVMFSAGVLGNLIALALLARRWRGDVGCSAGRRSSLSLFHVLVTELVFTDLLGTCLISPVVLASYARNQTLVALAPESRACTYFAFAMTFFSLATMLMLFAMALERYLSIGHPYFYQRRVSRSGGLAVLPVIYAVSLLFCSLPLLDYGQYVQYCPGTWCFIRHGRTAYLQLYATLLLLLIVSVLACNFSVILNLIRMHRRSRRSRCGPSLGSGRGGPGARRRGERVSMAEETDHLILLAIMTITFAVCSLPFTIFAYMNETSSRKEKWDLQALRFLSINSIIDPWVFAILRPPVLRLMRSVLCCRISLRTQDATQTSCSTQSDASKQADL

In this assay the target is T1, EP2 receptor (PTGER2) (Homo sapiens, UniProt P43116).
T1 construct: host or cells: PathHunter beta-arrestin cell line
Put plainly: PathHunter beta-arrestin cell-based prostanoid receptor assay, EP2. The conditions noted are these: Run 1, GP1681 starting concentration 4 uM; β-Arrestin. Here is the method:
DiscoverX cell-based ligand binding assays were performed in the PathHunter beta-arrestin (EP1, EP2, EP3, EP4, FP, IP, and TP receptors) or cAMP Hunter™ (DP receptor) cell lines.
Receptor binding studies were performed in either the PathHunter® b-Arrestin (EP1, EP2, EP3, EP4, FP, IP, and TP receptors) or cAMP Hunter™ (DP receptor) cell lines. A 10 mM working stock of GP1681 was created in 1×PBS, pH 7.4. All assays were carried out in duplicate with 10 individual concentrations of GP1681. A three-fold dilution series of GP1681 was established for the initial or pilot experiment with a starting concentration of 4 uM (starting concentration was chosen based on previous Gemmus Pharma preclinical experimental results).
GP1681 was incubated with cells lines at either 37° C. or room temperature, for 90-180 minutes (temperatures and incubation times are all dependent on established optimized procedures for each receptor cell line) after which cell wells were processed and signal production detected. […] Receptor binding activity was analyzed using CBIS data analysis suite (ChemInnovation, CA). The percentage of activity was calculated using the following formula: % Activity=100%×(mean RLU of test sample−mean RLU of vehicle control)/(mean MAX control ligand−mean RLU of vehicle control). Dose curves were performed and EC50 values determined.

One may read the EC50 as the concentration needed to bring the measured effect to its halfway point. High values mean a less potent agent, low ones a more potent agent. Take `CCCCC[C@H](O)/C=C/[C@H]1[C@H](O)CC(=O)[C@@H]1C/C=C\CCCC(=O)O` [PGE2, Prostaglandin E2, reference compound]: the concentration giving a half-maximal response (EC50) turned out to be 1240 nM.
